# From ChEMBL document CHEMBL1148323, “Conformationally constrained peptide analogues of pTyr-Glu-Glu-Ile as inhibitors of the Src SH2 domain binding” (J Med Chem, 2004)
# Sequences of proteins named here, by UniProt entry; tags and fusion partners are left off. A change or cut given only in a name is not applied to a line headed by its entry.
# UniProt P12931: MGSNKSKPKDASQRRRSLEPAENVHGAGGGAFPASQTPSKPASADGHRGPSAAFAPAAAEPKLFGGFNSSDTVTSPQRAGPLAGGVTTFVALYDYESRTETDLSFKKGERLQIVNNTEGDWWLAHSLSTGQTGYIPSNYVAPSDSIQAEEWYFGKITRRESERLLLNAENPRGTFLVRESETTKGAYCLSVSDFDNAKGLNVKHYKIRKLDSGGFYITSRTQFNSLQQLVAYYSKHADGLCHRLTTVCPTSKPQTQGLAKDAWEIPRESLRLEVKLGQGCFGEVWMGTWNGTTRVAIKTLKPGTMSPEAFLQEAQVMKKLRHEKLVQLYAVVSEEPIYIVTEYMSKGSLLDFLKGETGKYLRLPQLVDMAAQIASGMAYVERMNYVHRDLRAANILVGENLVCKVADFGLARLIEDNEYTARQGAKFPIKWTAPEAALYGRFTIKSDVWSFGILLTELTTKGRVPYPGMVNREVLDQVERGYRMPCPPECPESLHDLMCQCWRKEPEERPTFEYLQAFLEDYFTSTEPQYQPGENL
# Molecular target: Proto-oncogene tyrosine-protein kinase Src (Homo sapiens, UniProt P12931)
# Test: Concentration of compound required for inhibiting the binding of the fluorescent probe to the c-Src tyrosine kinase SH2 domain by 50%
structure (smiles),measurement,value
CC[C@H](C)[C@H](NC(=O)[C@H](CCC(=O)O)NC(=O)[C@H](CCC(=O)O)NC(=O)[C@H](Cc1ccc(OP(=O)(O)O)cc1)NC(C)=O)C(=O)O,IC50,6.5 µM
